Measured values taken from ChEMBL document CHEMBL5729346, “2-beta-naphthyl-acetic acid analogs as AKR1C3 inhibitors and methods of using same” (2022).

Biological target: T1, Aldo-keto reductase family 1 member C3 (Homo sapiens, UniProt P42330)
T1 sequence (P42330 whole entry): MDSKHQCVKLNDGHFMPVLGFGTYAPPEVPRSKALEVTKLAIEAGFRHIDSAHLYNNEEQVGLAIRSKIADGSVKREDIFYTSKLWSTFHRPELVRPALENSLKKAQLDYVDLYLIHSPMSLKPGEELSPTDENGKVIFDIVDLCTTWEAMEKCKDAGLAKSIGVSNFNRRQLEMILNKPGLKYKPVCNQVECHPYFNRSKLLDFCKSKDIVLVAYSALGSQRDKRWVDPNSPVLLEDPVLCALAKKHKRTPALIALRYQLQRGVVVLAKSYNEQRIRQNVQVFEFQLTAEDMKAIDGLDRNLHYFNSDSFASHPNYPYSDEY
Experiment: S-Tetralol Oxidation Assay: the inhibitory potency of the individual compounds against the AKR1C isoforms was determined by monitoring the NADP+ dependent oxidation of S-tetralol catalyzed by the AKR1C enzymes using substrate concentrations at their Km values in the presence and absence of varying concentration of the inhibitors (Adeniji, et al., 2012, J Med Chem 55:2311-2323). Reaction systems (200 μL) contained 100 mM potassium phosphate buffer (pH 7.0), 4% DMSO, 200 μM NADP+, a serial dilution of compounds, S-tetralol, and AKR1C enzymes. […] The concentration of AKR1C1, 1C2, 1C3, and 1C4 was 111, 86, 95, and 552 nM, respectively. Reagents were mixed and incubated at 37° C. for 10 min followed by adding AKR1C enzymes to initiate the reaction. […] To determine the pattern of inhibition, five fixed concentrations of S-tetralol were used and four different concentrations of inhibitor were used and a gobal fit of the equations for COMP, NONCOMP and UNCOMP to the data was applied using Grafit.

COc1ccc2cc([C@@H](C)C(=O)O)ccc2c1
IC50: 180 nM
